Reference: patent US20080268451A1, “MEASUREMENT OF AN INSOLUBLE ANALYTE IN A SAMPLE” (priority 2007, published 2008)

Test system: PXR
Conditions: human primary liver cells, 0-10 μM rifampicin

- PXR transcript level (qNPA): suppressed
- suppression of PXR (qNPA (Panel a of FIG. 27)): less than 50%
Compound: CO[C@H]1/C=C/O[C@@]2(C)Oc3c(C)c(O)c4c(O)c(c(/C=N/N5CCN(C)CC5)c(O)c4c3C2=O)NC(=O)/C(C)=C\C=C\[C@H](C)[C@H](O)[C@@H](C)[C@@H](O)[C@@H](C)[C@H](OC(C)=O)[C@@H]1C [rifampicin]
